For the series the following is noted: 6x-histadine tagged PGA immobilized on 90 μm Ni-NTA magnetic agarose particles, 32 mg PGA/mL bead.

The text below walks through data of US12458982B2, “Devices, systems, and methods of use thereof for magnetic separation” (GEORGIA TECH RESEARCH CORPORATION, priority 2021, dated 2025).

In turn, penicillin G acylase [PGA] displayed a PGA activity of 17.2 U/mg PGA.
